Data reported in PubChem BioAssay AID463215 (Sanford-Burnham Center for Chemical Genomics, 2010).
Only a part is listed here, and it is no random draw. The source made the active and inactive calls.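 How the source made its calls: active means inhibition of yeast growth at or above a set limit in either of two replicates at 10 µM; inactive means the rest.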

Assay: growth inhibitors of wild-type TIM10 yeast, confirmation, counter-screen for tim10-1 synthetic lethality project, single concentration, luminescence, S. cerevisiae (AID 463215);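 further: isogenic wild-type TIM10 control yeast grown in succinate dextrose medium; this counterscreen used the strain with wild-type TIM10; 0% = yeast with DMSO and 100% = medium wells lacking yeast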
Details: S. cerevisiae tim10 strain growth, BacTiter-Glo luminescence, 24 h; at 10 µM; active compounds read high
In the case of `O=[N+]([O-])c1cc([N+](=O)[O-])c(CCNc2ccccc2)c([N+](=O)[O-])c1`, the inhibition is reported as active: 72.5%. With `CN(C)C(=O)c1cc([N+](=O)[O-])cc2c1-c1c(cc([N+](=O)[O-])cc1[N+](=O)[O-])C2=O` the inhibition was active: 91.3%. With `Cc1ccc(NCCc2c([N+](=O)[O-])cc([N+](=O)[O-])cc2[N+](=O)[O-])cc1` the inhibition was inactive: 6.65%. In the case of `O=[N+]([O-])c1cc([N+](=O)[O-])c(-c2ccn[nH]2)s1`, the inhibition is reported as active: 81.7%.
